Chains of the proteins cited; added tags and fusions are not shown. Residues count along the entry.
UniProt P16871, 21-459: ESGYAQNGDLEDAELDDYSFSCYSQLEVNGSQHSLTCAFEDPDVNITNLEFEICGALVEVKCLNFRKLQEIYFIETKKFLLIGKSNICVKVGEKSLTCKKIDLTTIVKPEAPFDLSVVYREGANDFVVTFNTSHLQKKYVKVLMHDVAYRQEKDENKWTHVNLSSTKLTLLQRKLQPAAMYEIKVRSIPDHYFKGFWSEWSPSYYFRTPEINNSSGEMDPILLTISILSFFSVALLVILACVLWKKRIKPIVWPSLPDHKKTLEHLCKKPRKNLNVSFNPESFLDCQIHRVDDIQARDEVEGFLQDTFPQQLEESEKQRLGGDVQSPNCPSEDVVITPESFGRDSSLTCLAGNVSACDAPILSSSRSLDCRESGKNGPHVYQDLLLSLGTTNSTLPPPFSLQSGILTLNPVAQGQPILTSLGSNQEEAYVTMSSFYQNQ
UniProt P31785, 23-369: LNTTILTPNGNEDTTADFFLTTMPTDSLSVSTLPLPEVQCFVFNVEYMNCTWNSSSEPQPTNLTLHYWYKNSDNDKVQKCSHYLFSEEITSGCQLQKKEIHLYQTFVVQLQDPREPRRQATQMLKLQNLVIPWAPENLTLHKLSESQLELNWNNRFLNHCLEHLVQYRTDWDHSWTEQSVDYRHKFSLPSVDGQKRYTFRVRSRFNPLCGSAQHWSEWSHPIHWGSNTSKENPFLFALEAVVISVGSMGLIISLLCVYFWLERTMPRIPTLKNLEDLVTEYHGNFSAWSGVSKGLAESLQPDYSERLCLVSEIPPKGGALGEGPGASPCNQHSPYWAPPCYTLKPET

In patent US20220119493A1, “IL-7R-ALPHA BINDING COMPOUNDS” (MEDIKINE, INC., priority 2020, published 2022):

Tests used:
IL-7R [1] = target: T1, IL-7R (Homo sapiens, UniProt P16871+P31785); experiment: pSTAT5 assay in resting PBMCs; type: cell-based
T1 construct: human primary immune cells, hPBMCs, collected from individual donors; host or cells: human primary PBMCs from individual donors

IL-7R [2] = target: T1, IL-7R; experiment: TF1-7Rα pSTAT5 assay; type: cell-based; conditions: TF-1-7Rα cells, STAT5 phosphorylation; hIL-7 comparator

EC50 (IL-7R [1]): ~7 µM
EC50 (IL-7R [2]): ~0.0002 µM
Substance: hIL-7: human interleukin-7, the natural cytokine, comparator in the functional assays
